# Experimental data as given in patent US20230174624A1, “FERRITIN VARIANTS WITH INCREASED STABILITY, COMPLEXATION ABILITY AND TRANSFERRIN RECEPTOR AFFINITY” (CELLIS AG, priority 2020, published 2023).
# Assays:
# [1] = Native gel after storage in a freezer (-80 degrees Celsius) and thawing; type: physicochemical; settings: ferritin-dox
# Text: Storage conditions for wild type ferritin are limited.
# siRNA = siRNA association with ferritin (gel); type: binding; settings: independently from pH conditions
# Procedure: FIG. 8: Picture of gel showing RNA association with Q11E ferritin mutant that is not observed in case of wild-type protein (wt).
# 1 ml reaction containing 2 mg Ft and 4 ug siRNA in DPBS, pH lowered to values as indicated (2.5, 3.2, 4.4, 5.6 and 6.8, respectively). Samples were incubated 15 min in RT, then NaOH was added to adjust pH to neutral (pH 7). Non-associated free siRNA was removed by 4 centrifugation steps on Amicons with 100 kDa cut-off.
substance,measurement,setting,value
WT: human wild-type heavy chain ferritin (SEQ ID NO. 1) [reference compound],stability of cages after storage,[1],causes an increase of cages aggregation
same,association with siRNA,siRNA,no association with siRNA was observed
